Laboratory results: ChEMBL document CHEMBL3045824, “Unique neonicotinoid binding conformations conferring selective receptor interactions” (J Agric Food Chem, 2011)

Amino acid sequences for entries named in this document (tags omitted).
UniProt P58154, whole entry: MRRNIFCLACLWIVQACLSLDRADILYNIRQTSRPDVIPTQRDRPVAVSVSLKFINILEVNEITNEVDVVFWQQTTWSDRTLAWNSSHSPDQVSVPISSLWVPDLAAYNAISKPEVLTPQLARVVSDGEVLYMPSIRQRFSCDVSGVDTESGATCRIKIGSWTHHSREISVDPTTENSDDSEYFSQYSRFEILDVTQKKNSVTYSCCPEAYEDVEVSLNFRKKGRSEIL

Target: Acetylcholine-binding protein (Lymnaea stagnalis, UniProt P58154)
Test: Binding affinity to freshwater snail Lymnaea stagnalis AChBP assessed as [3H]EPI binding by radioligand binding assay

SMILES: CN1CCC[C@H]1c1cccnc1 [NICOTINE]
- Ki: 0.1 µM
